For one compound, IC50 results are on record in patent US12091425B2 (AMGEN INC., priority 2016, dated 2024).

By UniProt entry, the sequences of proteins in these tests, tags left out. Residues count along the entry.
UniProt Q07820, 171-327: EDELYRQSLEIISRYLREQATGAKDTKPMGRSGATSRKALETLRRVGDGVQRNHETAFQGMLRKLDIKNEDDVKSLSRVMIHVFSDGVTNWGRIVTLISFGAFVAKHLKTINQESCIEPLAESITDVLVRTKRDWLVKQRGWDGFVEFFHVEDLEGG

The assay concerns the target T1, Mcl-1/Bim interaction, recombinant human Mcl-1 (171-327) (Homo sapiens, UniProt Q07820).
T1 construct: made in house
Nature of the assay: Cell free Mcl-1: Bim Affinity Assay (Mcl-1 HTRF). As to conditions: cell free Mcl-1:Bim TR-FRET. The class given is binding. The protocol: Cell free Mcl-1: Bim Affinity Assay (Mcl-1 HTRF)
The inhibition of the Mcl-1/Bim interaction was measured using a time-resolved fluorescence resonance energy transfer (TR-FRET) assay. […] A biotinylated peptide derived from human Bim (residues 51-76) was purchased from CPC Scientific (San Jose, CA). The TR-FRET assay was conducted in a 384-well white OptiPlatem (PerkinElmer, Waltham, MA) in a total volume of 40 μL. […] The reaction plates were further incubated overnight and then were read on an Envision® multimode reader (PerkinElmer). […] The IC50 values of test compounds were determined from duplicate data by analyzing competition curves using a four-parameter sigmoidal model in GraphPad Prism (GraphPad Software, San Diego, CA) or in Genedata Screener® (Genedata, Basel, Switzerland).
(TR-FRET usually uses a lanthanide donor and a delayed reading to cut background.)

For the compound `C=C1CCC[C@H](C)[C@@H](C)S(=O)(=O)NC(=O)c2ccc3c(c2)N(C[C@@H]2CC[C@@H]12)C[C@@]1(CCCc2cc(Cl)ccc21)CO3` [Example 581, (1S,3′R,6′R,11′S,12′R)-6-chloro-11′,12′-dimethyl-7′-methylidene-3,4-dihydro-2H,15′H-spiro[naphthalene-1,22′-[20]oxa[13]thia[1,14]diazatetracyclo[14.7.2.0^3,6.0^19,24]pentacosa [16,18,24]trien]-15′-one 13′,13′-dioxide], the IC50 came to 9.43 nM.

What is called IC50 is the concentration that inhibits the measured activity by half.
